This note sets out measurements from the kinase profiling compilation of Christmann-Franck et al. (2016).

The chains behind the UniProt entries cited, without tags or fusion partners. Where a name states a change or a piece, a line headed by the entry shows the natural chain unless it says otherwise.
UniProt P49840: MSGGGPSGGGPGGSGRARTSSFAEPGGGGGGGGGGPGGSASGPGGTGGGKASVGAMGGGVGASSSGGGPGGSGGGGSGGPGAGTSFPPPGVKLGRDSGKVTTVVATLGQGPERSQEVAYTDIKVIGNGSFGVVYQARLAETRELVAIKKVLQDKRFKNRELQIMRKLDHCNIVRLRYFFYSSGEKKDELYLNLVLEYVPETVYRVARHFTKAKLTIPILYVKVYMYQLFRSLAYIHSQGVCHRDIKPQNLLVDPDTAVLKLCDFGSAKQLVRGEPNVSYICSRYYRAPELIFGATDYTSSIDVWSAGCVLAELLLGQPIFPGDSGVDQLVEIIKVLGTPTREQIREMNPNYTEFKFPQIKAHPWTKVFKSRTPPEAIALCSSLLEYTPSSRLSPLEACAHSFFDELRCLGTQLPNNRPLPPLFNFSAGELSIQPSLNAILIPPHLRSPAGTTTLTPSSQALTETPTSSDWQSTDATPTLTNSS

The target in the test is GSK3A (human) (UniProt P49840).

`CN1CC[C@H](c2c(O)cc(O)c3c(=O)cc(-c4ccccc4Cl)oc23)[C@H](O)C1`: the IC50 (commonly the concentration at which inhibition is half-maximal) was found to be 8.7 µM.
